Data published in patent US9925170B2, “Methods of adipolysis and compositions useful therein” (priority 2015, dated 2018).

System: Human mature adipocytes
Assay: Effect of statins on human mature adipocytes, cell viability by ALAMARBLUE assay

Which results are given for `CC[C@H](C)C(=O)O[C@H]1C[C@@H](C)C=C2C=C[C@H](C)[C@H](CC[C@@H]3C[C@@H](O)CC(=O)O3)[C@H]21` [lovastatin]?
dose dependence of cytotoxic effect (range of concentrations, 7 days (FIG. 3-5)): dose-dependent cytotoxic effect; relative cytotoxicity of statins (statin treatment at 10 μM (FIG. 2)): more cytotoxic than rosuvastatin and atorvastatin
